Source: PubChem BioAssay AID504905 (The Scripps Research Institute Molecular Screening Center, 2011)
Only a part is listed here, and it is no random draw. Some of these compounds have results that are not shown, active ones among them. The source made the active and inactive calls. Cut-off read from the data, not from the text of the source: active = activation above about 17%; inactive = the rest.

Chains of the proteins cited; added tags and fusions are not shown.
UniProt P47898, whole entry: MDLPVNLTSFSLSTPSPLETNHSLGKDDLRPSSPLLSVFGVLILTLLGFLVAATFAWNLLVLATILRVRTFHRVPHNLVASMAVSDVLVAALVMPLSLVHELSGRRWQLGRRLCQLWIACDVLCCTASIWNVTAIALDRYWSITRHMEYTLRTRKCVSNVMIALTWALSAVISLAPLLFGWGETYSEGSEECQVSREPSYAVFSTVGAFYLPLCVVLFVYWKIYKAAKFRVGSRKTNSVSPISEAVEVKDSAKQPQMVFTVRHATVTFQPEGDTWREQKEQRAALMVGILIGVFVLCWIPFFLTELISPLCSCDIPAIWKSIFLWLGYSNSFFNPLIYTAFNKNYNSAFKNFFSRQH

Molecular target: 5-hydroxytryptamine receptor 5A (Homo sapiens) (UniProt P47898)
Assay: HTR5A agonists in cells, counter-screen for OPRM1-OPRD1 heterodimer agonist project, cell-based, luminescence (AID 504905);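 note: 0% = vehicle-treated cells and 100% = reference agonist response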
Conditions: HTR5A agonist counterscreen, at 9.3 µM, active compounds read high

Compound | activation
CN(C)C1(CNC(=O)c2ccc(Br)cc2)CCCCC1 | inactive: 3.79%
CN(C)c1ccc(C(=O)NCC2(N(C)C)CCCCC2)cc1 | inactive: -2.9%
